Patent publication US20250326765A1, “PDE4B INHIBITOR AND USE THEREOF” (XIZANG HAISCO PHARMACEUTICAL CO., LTD., priority 2022, published 2025)

Protein sequences, listed by entry. Tags and fused reporters are not part of them. Residues count along the entry.
UniProt Q07343, 1-564 isoform 2: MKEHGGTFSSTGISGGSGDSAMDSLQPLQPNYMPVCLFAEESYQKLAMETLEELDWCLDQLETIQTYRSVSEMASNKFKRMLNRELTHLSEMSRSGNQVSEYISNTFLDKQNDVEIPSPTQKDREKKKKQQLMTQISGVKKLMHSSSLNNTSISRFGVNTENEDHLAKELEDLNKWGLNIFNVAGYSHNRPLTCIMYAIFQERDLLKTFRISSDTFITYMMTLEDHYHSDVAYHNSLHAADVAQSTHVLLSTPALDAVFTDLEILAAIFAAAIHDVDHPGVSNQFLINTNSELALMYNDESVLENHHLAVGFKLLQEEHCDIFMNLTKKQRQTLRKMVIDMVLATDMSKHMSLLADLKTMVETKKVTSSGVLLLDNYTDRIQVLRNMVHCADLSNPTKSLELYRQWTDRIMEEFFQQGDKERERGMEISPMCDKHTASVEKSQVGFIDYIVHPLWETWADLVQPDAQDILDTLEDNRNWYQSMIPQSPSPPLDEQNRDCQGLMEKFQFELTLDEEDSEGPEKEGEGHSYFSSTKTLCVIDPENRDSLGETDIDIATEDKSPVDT
UniProt Q08499, 303-809 limits assumed: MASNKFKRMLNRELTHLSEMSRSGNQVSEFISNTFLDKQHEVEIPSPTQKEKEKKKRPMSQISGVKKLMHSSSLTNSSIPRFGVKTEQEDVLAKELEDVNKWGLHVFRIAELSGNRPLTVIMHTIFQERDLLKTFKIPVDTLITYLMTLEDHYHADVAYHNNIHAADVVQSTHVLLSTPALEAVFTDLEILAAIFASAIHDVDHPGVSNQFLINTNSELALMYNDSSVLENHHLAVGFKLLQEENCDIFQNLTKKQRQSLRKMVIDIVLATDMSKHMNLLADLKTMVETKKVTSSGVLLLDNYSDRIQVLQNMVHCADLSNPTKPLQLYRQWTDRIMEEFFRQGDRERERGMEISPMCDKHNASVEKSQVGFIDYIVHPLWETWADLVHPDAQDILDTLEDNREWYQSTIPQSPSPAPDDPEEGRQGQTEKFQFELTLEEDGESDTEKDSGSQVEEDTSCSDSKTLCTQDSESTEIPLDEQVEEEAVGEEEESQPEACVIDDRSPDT

How the values were obtained:
PDE4B2 = PDE4B2 (Homo sapiens, UniProt Q07343); assay: Effect of compounds on PDE4B2 activity (fluorescence polarization kit); conditions: read-out: PDE4B2 IC50; class symbols
Protocol: The effect of compounds on PDE4B2 activity was detected by a fluorescence polarization kit (BPS Bioscience, Catalog #60343). According to the instructions of the kit, FAM-Cyclic-3′,5′-AMP at a final concentration of […], 1 ng/well of PDE4B2 (PDE buffer was added to the negative control well), and a compound diluted in a gradient manner (PDE buffer containing 10% DMSO was added to the positive control well) were added to each well, fully mixed, and then reacted at room temperature for 1 h. The Binding Agent was diluted with the Binding Agent Diluent (cAMP) at a ratio of 1:100 for later use, the Binding Agent dilution was taken and added to the test plate at 50 μl/well and incubated at room temperature with slow shaking for 20 minutes. After the incubation was complete, Envision was used for FP detection, with Excitation at 480 nm and Emission at 535 nm. FP was usually represented by mP value.
[formula] • I∥ (S535): fluorescence intensity in parallel direction • I⊥ (P535): fluorescence intensity in perpendicular direction • G: G factor=1
(§1) [formula] • mP(sample): mP of the test compound in a reaction well • mP(negative control): mP in the negative control well • mP(positive control): mP in the positive control well
(§2) According to the calculated inhibition rate at each concentration, the IC50 value of each compound was calculated by GraphPad Prism 8 software.

PDE4D2 = PDE4D2 (Homo sapiens, UniProt Q08499); assay: Effect of compounds on PDE4D2 activity (fluorescence polarization kit); conditions: read-out: PDE4D2 IC50; class symbols
Protocol: The effect of compounds on PDE4D2 activity was detected by a fluorescence polarization kit (BPS Bioscience, Catalog #60345). During the reaction, 12.5 μL of 0.272 ng/well of an enzyme (final concentration: 0.068 ng/well) and 12.5 μL of the compound diluted in a gradient manner (DMSO concentration: 4%) were first pre-incubated at room temperature for 15 minutes, the same volume of the enzyme at the same concentration and 12.5 μL of PDE buffer containing 4% DMSO were added to the positive control well, and 25 μL of PDE buffer containing 2% DMSO was added to the negative control well. After completion, 25 μL of […] FAM-Cyclic-3′,5′-AMP (final concentration: […]) was added to each well, fully mixed, and then incubated at room temperature with slow shaking for 30 minutes. The Binding Agent was diluted with the Binding Agent Diluent (cAMP) at a ratio of 1:100 for later use, 100 μl/well of the Binding Agent dilution was taken and added to all wells of the test plate and incubated at room temperature with slow shaking for 1 hour.
After the incubation was complete, BMG LRBTECH microplate reader was used for FP detection, with Excitation at 485 nm and Emission at 520 nm. FP was usually represented by mP value.
[formula] • I∥ (S520): fluorescence intensity in parallel direction • I⊥ (P520): fluorescence intensity in perpendicular direction • G: G factor=1
as §1, §2

[1] = tested on: release of tumor necrosis factor-α (TNF-α) from human peripheral blood mononuclear cells induced by lipopolysaccharide (LPS); assay: Inhibition of LPS-induced TNF-α release from human peripheral blood mononuclear cells in vitro; conditions: hPBMC, 100 ng/mL LPS, 4 h; for IC50: read-out: Re IC50 (nM) (relative IC50), TNF-α induced by LPS, class symbols
Protocol: Normal human peripheral blood which was anticoagulated (citric acid anticoagulation) was collected, and hPBMCs were prepared by Ficoll-Paque PLUS (Cytiva, Cat #17144002, density 1.077 g/mL). The concentration of hPBMC cells was adjusted to 0.25×10^6 cells/mL with RPMI1640 medium and inoculated into a 96-well plate in an amount of 50000 cells per well. Subsequently, different concentrations of drugs were added for pre-incubation for 1 h (the DMSO final concentration was 0.1%, and the positive and negative control wells had the same volume of RPMI1640 containing 0.1% DMSO). After the pre-incubation was complete, 100 ng/mL LPS (SIGMA, L2630) was added to the compound and positive control wells, and the negative control well had the same volume of RPMI1640 containing 0.1% DMSO. Incubation was carried out for 4 h in an incubator at 37° C. and 5% CO2. The cell supernatant was collected, and the content of TNF-α in the supernatant sample was detected by human TNF-α Elisa quantitative test kit (Sino Biological, Cat #KIT10602). The IC50 value was calculated using GraphPad Prism software.

[2] = Pharmacokinetic test in mice
Protocol: 5.1 Experimental animals: Male ICR mice, 20-25 g, 6 mice/compound. Purchased from Chengdu Ddossy Experimental Animals Co., Ltd.
5.2 Experimental design: On the day of the experiment, 42 ICR mice were randomly grouped according to their body weights. The animals were fasted with water available for 12-14 h one day before administration and fed 4 h after administration.
Before and after administration, 0.06 mL of blood was taken from the orbit under isoflurane anesthesia and placed in an EDTAK2 centrifuge tube for centrifugation at 5000 rpm at 4-C for 10 min, followed by plasma collection. The blood collection time points for the intravenous group and intragastric group were both 0 m, 5 mi, 15 mi, 30 mi, 1 h, 2 h, 4 h, 6 h, 8 h, and 24 h. Before analysis and detection, all the samples were stored at −80° C., and the samples were subjected to quantitative analysis using LC-MS/MS.

[3] = Pharmacokinetic test in beagle dogs
Protocol: 6.1 Experimental animals: male beagle dogs, about 8-11 kg, 6 beagle dogs/compound, purchased from Beijing Marshall Biotechnology Co., Ltd.
6.2 Experimental method: On the day of the experiment, 18 beagle dogs were randomly grouped according to their body weights. The animals were fasted with water available for 12-14 h one day before administration and fed 4 h after administration. Administration was carried out according to Table 8.
Before and after administration, 1 ml of blood was taken from the jugular vein or limb vein and placed in an EDTAK2 centrifuge tube. Centrifugation was carried out at 5000 rpm at 4° C. for 10 min, and plasma was collected. The blood collection time points for the intravenous group and intragastric group were both 0 min, 5 min, 15 min, 30 min, 1 h, 2 h, 4 h, 6 h, 8 h, 10 h, 12 h, 24 h, 48 h, and 72 h. Before analysis and detection, all the samples were stored at −80° C., and the samples were subjected to quantitative analysis using LC-MS/MS.

[4] = Pharmacokinetic test in monkeys
Protocol: Experimental animals: Male cynomolgus monkeys, 3-5 kg, 3-6 years old, 6 monkeys/compound. Purchased from Suzhou Xishan Biotechnology Inc.
Experimental method: On the day of the experiment, 12 monkeys were randomly grouped according to their body weights. The animals were fasted with water available for 14-18 h one day before administration and fed 4 h after administration.
Before and after administration, 1.0 mL of blood sample was taken from the limb vein and placed in an EDTAK2 centrifuge tube. Centrifugation was carried out at 5000 rpm at 4° C. for 10 min, and plasma was collected. The blood collection time points for the intravenous group were 0 min, 5 min, 15 min, 30 min, 1 h, 2 h, 4 h, 6 h, 8 h, 10 h, 12 h, and 24 h. Before analysis and detection, all the samples were stored at −80° C., and the samples were subjected to quantitative analysis using LC-MS/MS.

SMILES	IC50 (PDE4B2) [nM]	IC50 (PDE4D2) [nM]	IC50 [1] [nM]	Max inhibition (%) [1] [%]	also measured
[O-][S@+]1CCc2nc(N3CCN4c5ncc(Cl)cc5OCC4C3)nc(NC3(CO)CCC3)c21 (single isomer, unassigned) [Compound 68-1]	< 10	10 to 50	10 to 50	–	–
[O-][S@+]1CCc2nc(N3CCN4c5ccc(Cl)cc5OCC4C3)nc(NC3(CO)CCC3)c21 (single isomer, unassigned) [Compound 47-1]	10 to 50	–	–	–	–
[O-][S@+]1CCc2nc(N3CCN4c5ccccc5OCC4C3)nc(NC3(CO)CCC3)c21 (single isomer, unassigned) [Compound 61-2]	10 to 50	10 to 50	–	–	–
C#Cc1ccc2c(c1)OCC1CN(c3nc4c(c(NC5(CO)CCC5)n3)[S@+]([O-])CC4)CCN21 (single isomer, unassigned) [Compound 48-1]	< 10	< 10	–	–	–
CC(=O)N1CCN2c3ccc(-c4nc5c(c(NC6(CO)CCC6)n4)[S@+]([O-])CC5)cc3OCC2C1 (stereo partly drawn)	10 to 50	–	10 to 50	58.51	–
C#Cc1cnc2c(c1)OCC1CN(c3nc4c(c(NC5(CO)CCC5)n3)[S@+]([O-])CC4)CCN21 (single isomer, unassigned) [Compound 67-2]	10 to 50	50 to 100	10 to 50	–	–
[O-][S@+]1CCc2nc(N3C[C@H]4CC(c5ccc(Cl)cc5)C[C@H]4C3)nc(NC3(CO)CCC3)c21 (single isomer, unassigned)	10 to 50	< 10	–	–	–
C#Cc1cnc2c(c1)OCC1CN(c3nc4c(c(NC5(CO)CCC5)n3)[S@+]([O-])CC4)CCN21 (single isomer, unassigned) [Compound 67-1]	< 10	10 to 50	10 to 50	–	F ([2]; i.g. (10 mg/kg)): ≥98%; AUC0-t ([2]; plasma, i.g. (10 mg/kg)): 41862 ± 676 ng·h/mL; T1/2 ([2]; plasma, i.g. (10 mg/kg)): 2.66 ± 0.14 h; AUC0-t ([2]; plasma, i.v. (5 mg/kg)): 4552 ± 393 ng·h/mL; CL ([2]; plasma, i.v. (5 mg/kg)): 9.04 ± 0.75 mL/min/kg; T1/2 ([2]; plasma, i.v. (5 mg/kg)): 1.27 ± 0.053 h; Vdss ([2]; plasma, i.v. (5 mg/kg)): 0.986 ± 0.076 L/kg; F ([3]; i.g. (5 mg/kg)): 58.7 ± 13%; AUC0-t ([3]; plasma, i.g. (5 mg/kg)): 9080 ± 1987 ng·h/mL; T1/2 ([3]; plasma, i.g. (5 mg/kg)): 6.39 ± 0.54 h; AUC0-t ([3]; plasma, i.v. (1 mg/kg)): 5154 ± 436 ng·h/mL; CL ([3]; plasma, i.v. (1 mg/kg)): 3.24 ± 0.27 mL/min/kg; T1/2 ([3]; plasma, i.v. (1 mg/kg)): 6.20 ± 0.35 h; Vdss ([3]; plasma, i.v. (1 mg/kg)): 1.09 ± 0.091 L/kg; F ([4]; i.g. (5 mg/kg)): 34.9 ± 5.3%; AUC0-t ([4]; plasma, i.g. (5 mg/kg)): 7662 ± 1168 ng·h/mL; AUC0-t ([4]; plasma, i.v. (1 mg/kg)): 4391 ± 592 ng·h/mL; CL ([4]; plasma, i.v. (1 mg/kg)): 5.70 ± 0.63 mL/min/kg; Vdss ([4]; plasma, i.v. (1 mg/kg)): 1.06 ± 0.024 L/kg
[O-][S@+]1CCc2nc(N3CC4CC(C3)C4c3ccc(Cl)cc3)nc(NC3(CO)CCC3)c21 (stereo partly drawn)	10 to 50	–	–	–	–
C#Cc1ccc2c(c1)OCC1CN(c3nc4c(c(NC5(CO)CCC5)n3)[S@+]([O-])CC4)CCN21 (single isomer, unassigned) [Compound 48-2]	< 10	10 to 50	–	–	–
[O-][S@+]1CCc2nc(N3CCN4c5ccccc5OCC4C3)nc(NC3(CO)CCC3)c21 (single isomer, unassigned) [Compound 61-1]	< 10	< 10	–	–	–
CN1CCN2c3ccc(-c4nc5c(c(NC6(CO)CCC6)n4)[S@+]([O-])CC5)cc3OCC2C1 (single isomer, unassigned) [Compound 75-1]	< 10	10 to 50	< 10	63.52	–
CC#Cc1cnc2c(c1)OCC1CN(c3nc4c(c(NC5(CO)CCC5)n3)[S@+]([O-])CC4)CCN21 (single isomer, unassigned) [Compound 80-2]	< 10	10 to 50	10 to 50	63.03	–
CN1CCN2c3ccc(-c4nc5c(c(NC6(CO)CCC6)n4)[S@+]([O-])CC5)cc3OCC2C1 (single isomer, unassigned) [Compound 75-2]	10 to 50	50 to 100	10 to 50	72.44	–
[O-][S@+]1CCc2nc(N3CC4CC3CC4c3ccc(Cl)cc3)nc(NC3(CO)CCC3)c21 (stereo partly drawn)	10 to 50	10 to 50	–	–	–
[O-][S@+]1CCc2nc(N3CCN4c5ncc(Cl)cc5OCC4C3)nc(NC3(CO)CCC3)c21 (single isomer, unassigned) [Compound 68-2]	< 10	10 to 50	50 to 100	–	–
[O-][S@+]1CCc2nc(N3CC4C=C(c5ncc6c(n5)CC6)CC4C3)nc(NC3(CO)CCC3)c21 (single isomer, unassigned) [Compound 77-2]	10 to 50	10 to 50	< 10	73.99	–
[O-][S@+]1CCc2nc(N3CCN4c5ccc(Cl)cc5OCC4C3)nc(NC3(CO)CCC3)c21 (single isomer, unassigned) [Compound 47-2]	< 10	< 10	–	–	–
CC1CN(c2ccc3c(c2)OCC2CN(c4nc5c(c(NC6(CO)CCC6)n4)[S@+]([O-])CC5)CCN32)C1 (single isomer, unassigned) [Compound 81-2]	< 10	< 10	–	–	–
[O-][S@+]1CCc2nc(N3CC4C=C(c5ncc6c(n5)CC6)CC4C3)nc(NC3(CO)CCC3)c21 (single isomer, unassigned) [Compound 77-1]	< 10	< 10	< 10	75.70	–
